Data published in patent publication US8372441B2, “Materials and methods for preparation of alkaline earth ferrates from alkaline earth oxides, peroxides, and nitrates” (Biolife, LLC, priority 2007, dated 2013).

Assay: solubility in water or saline solution
Format: physicochemical
Conditions: for strontium ferrate water or saline solution

In the case of strontium hydroxide, the “solubility in water” value is reported as “slightly soluble”.
